Test results as given in US10144729B2, “Isoxazole analogs as FXR agonists and methods of use thereof” (Enanta Pharmaceuticals, Inc., priority 2016, dated 2018).
pEC50: −log10 of the molar value.

Chains of the proteins cited; added tags and fusions are not shown.
UniProt Q96RI1, whole entry: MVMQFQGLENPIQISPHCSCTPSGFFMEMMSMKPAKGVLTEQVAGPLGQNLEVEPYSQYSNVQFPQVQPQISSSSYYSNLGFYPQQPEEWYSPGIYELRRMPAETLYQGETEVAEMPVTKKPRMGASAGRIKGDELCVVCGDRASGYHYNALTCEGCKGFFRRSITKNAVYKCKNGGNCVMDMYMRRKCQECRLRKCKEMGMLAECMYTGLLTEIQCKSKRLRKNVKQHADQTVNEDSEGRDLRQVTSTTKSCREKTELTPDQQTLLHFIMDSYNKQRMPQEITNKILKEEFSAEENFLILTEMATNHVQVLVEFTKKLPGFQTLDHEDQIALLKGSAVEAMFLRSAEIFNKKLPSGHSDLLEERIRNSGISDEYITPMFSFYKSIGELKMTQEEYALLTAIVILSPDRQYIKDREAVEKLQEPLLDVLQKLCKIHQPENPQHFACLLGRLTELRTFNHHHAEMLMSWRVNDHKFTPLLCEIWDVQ

Biological target: human FXR (NR1H4) (Homo sapiens (Human), UniProt Q96RI1)
Experiment: Human FXR (NR1H4) Assay (Gal4 promoter driven luciferase reporter, CHO cells)
Format: cell-based

O=C(NS(=O)(=O)N1CCCCC1)c1ccc([C@@H]2C[C@H]2c2ccc(OCc3c(-c4c(Cl)cccc4Cl)noc3C3CC3)cc2Cl)cc1 (relative stereo) was tested, and the pEC50 (FXR reporter assay in CHO cells expressing human NR1H4, 22 hours incubation, potency ranges) was 6.00 to 7.00 and the “Efficacy (%)” value (FXR reporter assay in CHO cells, efficacy normalized to CDCA set as 100%) was 279%.
